Measured values published in US20060094649A1, “Hla-a1,-a2,-a3,-a24,-b7, and-b44 tumor associated antigen peptides and compositions” (priority 2002, published 2006).

Legend:
HLA-B*4002 = HLA-B*4002 (Homo sapiens, UniProt P01889, A65T/A93T/A95T/D138N/D201E/D98Y/E176V/E204Q/E69K/K202T/N87E/Q56L/Q94N/R180L/S48T/Y33H/Y91S); assay: Class I peptide-binding assay, HLA-B*4002 (B44 supertype); details: read-out: B*4002
HLA-B*4001 = HLA-B*4001 (Homo sapiens, UniProt P01889, A65T/A93T/A95T/D138N/D98Y/E176V/E69K/N87E/Q56L/Q94N/R180L/S121R/S35A/S48T/T167S/V36M/W171L/Y33H/Y91S); assay: Class I peptide-binding assay, HLA-B*4001 (B44 supertype); details: read-out: B*4001
HLA-B*4501 = HLA-B*4501 (Homo sapiens, UniProt P01889, A329T/A65T/A93T/A95T/C349S/D138N/D201E/D98Y/E176V/E187L/E204Q/E69K/H137Y/K202T/L119W/N87E/Q56L/Q94N/R155S/R180D/S121R/S35A/S48T/V127L/V306I/V36M/W191S/Y140L/Y33H/Y91S); assay: Class I peptide-binding assay, HLA-B*4501 (B44 supertype); details: read-out: B*4501
[1] = tested on: HLA-B44 supertype molecules; assay: HLA-B44 supertype cross-binding; design: species or system human; details: number of the six B44 supertype alleles bound
[2] = p53-derived B44 peptides, Table 28, dash cells
[3] = MAGE2-derived B44 peptides, Table 29

IC50 (HLA-B*4002; CEA-derived B44 peptides): > 10 µM | IC50 (HLA-B*4001; CEA-derived B44 peptides): > 10 µM | IC50 (HLA-B*4501; CEA-derived B44 peptides): > 10 µM | Degeneracy [1]: 0
SMILES: CC[C@H](C)[C@H](NC(=O)[C@H](Cc1ccccc1)NC(=O)[C@@H]1CCCN1C(=O)[C@H](CCCCN)NC(=O)[C@@H]1CCCN1C(=O)[C@@H]1CCCN1C(=O)[C@H](CCC(=O)O)NC(=O)[C@H](C)N)C(=O)O

IC50 (HLA-B*4002; CEA-derived B44 peptides): > 10 µM | IC50 (HLA-B*4001; CEA-derived B44 peptides): > 10 µM | IC50 (HLA-B*4501; CEA-derived B44 peptides): > 10 µM | Degeneracy [1]: 1
SMILES: CC[C@H](C)[C@H](NC(=O)[C@H](CCC(=O)O)NC(=O)[C@@H]1CCCN1C(=O)[C@H](CCC(=O)O)NC(=O)[C@@H](N)CS)C(=O)N[C@@H](CCC(N)=O)C(=O)N[C@@H](CC(N)=O)C(=O)N[C@H](C(=O)N[C@H](C(=O)N[C@@H](Cc1ccc(O)cc1)C(=O)O)[C@@H](C)O)[C@@H](C)O

IC50 (HLA-B*4002; CEA-derived B44 peptides): > 10 µM | IC50 (HLA-B*4001; CEA-derived B44 peptides): > 10 µM | IC50 (HLA-B*4501; CEA-derived B44 peptides): > 10 µM | Degeneracy [1]: 0
SMILES: C[C@H](NC(=O)[C@H](CC(=O)O)NC(=O)[C@H](CCC(N)=O)NC(=O)[C@@H](NC(=O)[C@H](CCC(=O)O)NC(=O)[C@@H]1CCCN1C(=O)[C@H](CCC(=O)O)NC(=O)[C@@H](N)CS)[C@@H](C)O)C(=O)N[C@H](C(=O)N[C@@H](Cc1ccc(O)cc1)C(=O)O)[C@@H](C)O

IC50 (HLA-B*4501; CEA-derived B44 peptides): > 10 µM | Degeneracy [1]: 3
SMILES: CC[C@H](C)[C@H](NC(=O)[C@@H](NC(=O)[C@H](CCC(N)=O)NC(=O)[C@H](CCCNC(=N)N)NC(=O)[C@H](CC(N)=O)NC(=O)CNC(=O)[C@H](CC(=O)O)NC(=O)[C@@H](NC(=O)[C@H](CCCNC(=N)N)NC(=O)[C@H](CCC(=O)O)NC(=O)CN)C(C)C)[C@@H](C)CC)C(=O)O

IC50 (HLA-B*4002; CEA-derived B44 peptides): > 10 µM | IC50 (HLA-B*4001; CEA-derived B44 peptides): > 10 µM | IC50 (HLA-B*4501; CEA-derived B44 peptides): > 10 µM | Degeneracy [1]: 0
SMILES: C[C@H](NC(=O)[C@H](CC(=O)O)NC(=O)[C@H](CCC(N)=O)NC(=O)[C@@H](NC(=O)[C@H](CCC(=O)O)NC(=O)[C@@H]1CCCN1)[C@@H](C)O)C(=O)N[C@H](C(=O)N[C@@H](Cc1ccc(O)cc1)C(=O)O)[C@@H](C)O

IC50 (HLA-B*4002; CEA-derived B44 peptides): > 10 µM | IC50 (HLA-B*4001; CEA-derived B44 peptides): > 10 µM | IC50 (HLA-B*4501; CEA-derived B44 peptides): > 10 µM | Degeneracy [1]: 0
SMILES: CC(C)C[C@H](NC(=O)[C@H](Cc1ccc(O)cc1)NC(=O)[C@@H](NC(=O)[C@H](C)NC(=O)[C@H](CC(=O)O)NC(=O)[C@H](CCC(N)=O)NC(=O)[C@@H](NC(=O)[C@H](CCC(=O)O)NC(=O)[C@@H]1CCCN1)[C@@H](C)O)[C@@H](C)O)C(=O)N[C@@H](Cc1c[nH]c2ccccc12)C(=O)O

IC50 (HLA-B*4501; CEA-derived B44 peptides): > 10 µM | Degeneracy [1]: 0
SMILES: CC(C)C[C@H](NC(=O)[C@H](C)NC(=O)[C@@H](NC(=O)[C@H](C)NC(=O)[C@H](CC(=O)O)NC(=O)[C@H](CCC(=O)O)NC(=O)[C@H](CC(=O)O)NC(=O)[C@H](CCC(=O)O)NC(=O)[C@@H](N)C(C)C)C(C)C)C(=O)N[C@H](C(=O)O)[C@@H](C)O

IC50 (HLA-B*4501; CEA-derived B44 peptides): > 10 µM | Degeneracy [1]: 2
SMILES: CC(C)[C@H](N)C(=O)N[C@@H](CCC(=O)O)C(=O)N[C@@H](CC(=O)O)C(=O)N[C@@H](CCCCN)C(=O)N[C@@H](CC(=O)O)C(=O)N[C@@H](C)C(=O)N[C@H](C(=O)N[C@@H](C)C(=O)N[C@@H](Cc1ccccc1)C(=O)O)C(C)C

IC50 (HLA-B*4501; CEA-derived B44 peptides): > 10 µM | Degeneracy [1]: 0
SMILES: CC(C)[C@H](N)C(=O)N[C@@H](CCC(=O)O)C(=O)N[C@@H](CC(=O)O)C(=O)N[C@@H](CCCCN)C(=O)N[C@@H](CC(=O)O)C(=O)N[C@@H](C)C(=O)N[C@H](C(=O)N[C@@H](C)C(=O)N[C@@H](Cc1ccccc1)C(=O)N[C@H](C(=O)O)[C@@H](C)O)C(C)C

IC50 (HLA-B*4501; CEA-derived B44 peptides): > 10 µM | Degeneracy [1]: 0
SMILES: CC(C)[C@H](NC(=O)[C@@H]1CCCN1C(=O)[C@H](CC(N)=O)NC(=O)[C@H](CCC(N)=O)NC(=O)[C@@H](NC(=O)[C@H](CCC(=O)O)NC(=O)[C@@H](N)CS)[C@@H](C)O)C(=O)O [CETQNPV]

IC50 (HLA-B*4501; CEA-derived B44 peptides): > 10 µM | Degeneracy [1]: 2
SMILES: CC(C)C[C@H](NC(=O)[C@H](C)NC(=O)[C@@H](NC(=O)[C@H](C)NC(=O)[C@H](CC(=O)O)NC(=O)[C@H](CCC(=O)O)NC(=O)[C@H](CC(=O)O)NC(=O)[C@H](CCC(=O)O)NC(=O)[C@@H](N)C(C)C)C(C)C)C(=O)O [VEDEDAVAL]

SMILES: CC[C@H](C)[C@H](NC(=O)[C@H](CC(N)=O)NC(=O)[C@H](C)NC(=O)[C@H](CO)NC(=O)[C@@H](NC(=O)[C@@H](NC(=O)[C@H](C)NC(=O)[C@H](CCCNC(=N)N)NC(=O)[C@@H](NC(=O)[C@H](CCC(=O)O)NC(=O)[C@@H](N)CCCNC(=N)N)C(C)C)C(C)C)[C@@H](C)O)C(=O)O [compound 482]
IC50 (HLA-B*4501; HER2/neu-derived B44 peptides, Table 27, binding to purified HLA-B*4501): 0.421 µM | Degeneracy [1]: 4

SMILES: CC(C)C[C@H](NC(=O)[C@H](Cc1ccc(O)cc1)NC(=O)[C@H](CCC(=O)O)NC(=O)[C@H](CCC(=O)O)NC(=O)[C@H](C)N)C(=O)N[C@H](C(=O)N1CCC[C@H]1C(=O)N[C@@H](CCC(N)=O)C(=O)N[C@@H](CCC(N)=O)C(=O)NCC(=O)N[C@@H](Cc1ccccc1)C(=O)O)C(C)C [compound 494]
IC50 (HLA-B*4002; HER2/neu-derived B44 peptides, Table 27, binding to purified HLA-B*4002): 1.83 µM | IC50 (HLA-B*4001; HER2/neu-derived B44 peptides, Table 27, binding to purified HLA-B*4001): 0.584 µM | Degeneracy [1]: 4

IC50 (HLA-B*4501; [2]): > 10 µM
SMILES: CC(C)C[C@H](NC(=O)[C@H](CC(C)C)NC(=O)[C@H](CC(N)=O)NC(=O)CNC(=O)[C@H](CO)NC(=O)[C@H](CO)NC(=O)[C@H](CC(=O)O)NC(=O)[C@H](CCC(=O)O)NC(=O)[C@@H](N)CC(C)C)C(=O)O [compound 617]

IC50 (HLA-B*4002; [2]): > 10 µM | IC50 (HLA-B*4501; [2]): > 10 µM
SMILES: CC(C)C[C@H](NC(=O)[C@@H]1CCCN1C(=O)[C@@H]1CCCN1C(=O)[C@H](CCC(=O)O)NC(=O)[C@@H](N)C(C)C)C(=O)N[C@@H](CO)C(=O)N[C@@H](CCC(N)=O)C(=O)N[C@@H](CCC(=O)O)C(=O)N[C@H](C(=O)O)[C@@H](C)O [compound 622]

IC50 (HLA-B*4501; [2]): > 10 µM
SMILES: CC(C)C[C@H](NC(=O)[C@@H]1CCCN1C(=O)[C@H](CO)NC(=O)[C@H](CC(C)C)NC(=O)[C@@H](NC(=O)[C@H](CC(N)=O)NC(=O)[C@H](CC(N)=O)NC(=O)[C@H](CCC(=O)O)NC(=O)[C@@H]1CCCN1)C(C)C)C(=O)O [compound 625]

IC50 (HLA-B*4002; [2]): > 10 µM | IC50 (HLA-B*4501; [2]): > 10 µM
SMILES: CC(C)C[C@H](NC(=O)[C@H](CC(N)=O)NC(=O)CNC(=O)[C@H](CCC(=O)O)NC(=O)[C@@H](N)C(C)C)C(=O)N[C@@H](CCCNC(=N)N)C(=O)N[C@H](C(=O)N[C@@H](CCC(=O)O)C(=O)N[C@@H](Cc1ccc(O)cc1)C(=O)O)C(C)C [compound 627]

IC50 (HLA-B*4002; [2]): > 10 µM | IC50 (HLA-B*4501; [2]): > 10 µM | Degeneracy ([1]; p53-derived B44 peptides, Table 28): 0
SMILES: CC(C)[C@H](NC(=O)[C@H](CCC(=O)O)NC(=O)[C@@H]1CCCN1)C(=O)NCC(=O)N[C@@H](CO)C(=O)N[C@@H](CC(=O)O)C(=O)N[C@@H](CS)C(=O)N[C@H](C(=O)N[C@H](C(=O)O)[C@@H](C)O)[C@@H](C)O [compound 642]

SMILES: CC[C@H](C)[C@H](NC(=O)[C@H](CCCCN)NC(=O)[C@H](CCC(=O)O)NC(=O)[C@@H](N)CCC(=O)O)C(=O)N[C@@H](Cc1c[nH]c2ccccc12)C(=O)N[C@@H](CCC(=O)O)C(=O)N[C@@H](CCC(=O)O)C(=O)N[C@@H](CC(C)C)C(=O)N[C@@H](CO)C(=O)N[C@@H](CCSC)C(=O)O [compound 662]
IC50 (HLA-B*4002; [3]): 0.477 µM | IC50 (HLA-B*4501; [3]): 0.107 µM | Degeneracy [1, 3]: 5

Like-named read-outs stand apart in the source and are kept apart here. Each block holds one compound with its values, some of them ahead of it.
